Assay results reported in patent US12398154B2, “Azaquinazoline pan-KRas inhibitors” (Mirati Therapeutics, Inc., priority 2020, dated 2025).

The chains behind the UniProt entries cited, without tags or fusion partners. Where a name states a change or a piece, a line headed by the entry shows the natural chain unless it says otherwise.
UniProt P01116: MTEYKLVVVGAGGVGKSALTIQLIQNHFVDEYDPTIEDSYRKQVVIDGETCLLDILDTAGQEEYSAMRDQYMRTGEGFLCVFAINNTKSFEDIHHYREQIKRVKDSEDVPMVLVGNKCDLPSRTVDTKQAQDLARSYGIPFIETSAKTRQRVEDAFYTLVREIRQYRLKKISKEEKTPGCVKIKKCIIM

How the values were obtained:
KRas Q61H = biological target: T1, KRas Q61H (Homo sapiens, UniProt P01116, Q61H); assay: KRas binding assay (TR-FRET displacement); conditions: TR-FRET tracer displacement, 60-minute incubation at room temperature;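 also: TR-FRET signal read after one hour at room temperature, IC50 derived by four-parameter fitting of percent-of-control values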
T1 construct: Biotinylated KRas (corresponding to amino acids 1-169, produced at Accelegan Inc.); biotin (biotinylated); purchased Accelegan Inc

KRas G13D = biological target: T2, KRas G13D (Homo sapiens, UniProt P01116, G13D); assay: KRas binding assay (TR-FRET displacement); conditions: TR-FRET tracer displacement, 60-minute incubation at room temperature;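 also: One-hour room temperature incubation before TR-FRET reading, IC50 from a four-parameter curve fit to percent-of-control data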
T2 construct: Biotinylated KRas (corresponding to amino acids 1-169, produced at Accelegan Inc.); biotin (biotinylated); purchased Accelegan Inc

Row | SMILES | IC50 (KRas Q61H) | IC50 (KRas G13D)
1 | CCc1cccc2cccc(-c3ncc4c(N5CC6CC(O)C(C6)C5)nc(OCC56CCCN5CCC6)nc4c3F)c12 (stereo not drawn) [Example 290, 3-(7-(8-ethylnaphthalen-1-yl)-8-fluoro-2-((hexahydro-1H-pyrrolizin-7a-yl)methoxy)pyrido[4,3-d]pyrimidin-4-yl)-3-azabicyclo[3,2,1]octan-6-ol] | 290 nM | 236 nM
2 | O=C1CC2(CCCN(c3nc(OCC45CCCN4CCC5)nc4c(F)c(-c5cccc6cccc(Cl)c56)ncc34)C2)N1 (stereo not drawn) [Example 283, 6-(7-(8-chloronaphthalen-1-yl)-8-fluoro-2-((tetrahydro-1H-pyrrolizin-7a(5H)-yl)methoxy)pyrido[4,3-d]pyrimidin-4-yl)-1,6-diazaspiro[3.5]nonan-2-one] | 142 nM | 157 nM
3 | Cc1ccc2[nH]ncc2c1-c1ncc2c(N3CCCC(C)(O)C3)nc(OCC34CCCN3CCC4)nc2c1F (stereo not drawn) [Example 430, 1-(8-fluoro-2-((hexahydro-1H-pyrrolizin-7a-yl)methoxy)-7-(5-methyl-1H-indazol-4-yl)pyrido[4,3-d]pyrimidin-4-yl)-3-methylpiperidin-3-ol] | 8860 nM | 5490 nM
4 | CCc1c(F)ccc2cc(O)cc(-c3ncc4c(N5CCCCCCC5)nc(OC[C@@]56CCCN5C[C@H](F)C6)nc4c3F)c12 [Example 325, 4-(4-(azocan-1-yl)-8-fluoro-2-(((2R,7aS)-2-fluorohexahydro-1H-pyrrolizin-7a-yl)methoxy)pyrido[4,3-d]pyrimidin-7-yl)-5-ethyl-6-fluoronaphthalen-2-ol] | ≤ 2 nM | ≤ 2 nM
5 | CCc1cccc2cccc(-c3ncc4c(N5CCOCC(C)(O)C5)nc(OCC56CCCN5CCC6)nc4c3F)c12 (stereo not drawn) [Example 291, 4-(7-(8-ethylnaphthalen-1-yl)-8-fluoro-2-((hexahydro-1H-pyrrolizin-7a-yl)methoxy)pyrido[4,3-d]pyrimidin-4-yl)-6-methyl-1,4-oxazepan-6-ol] | 218 nM | 209 nM
6 | CCc1c(F)ccc2cc(O)cc(-c3ncc4c(N5CCOC[C@@](C)(O)C5)nc(OCC5(CN6CCCC6)CC5)nc4c3F)c12 [Example 321, (S)-4-(7-(8-ethyl-7-fluoro-3-hydroxynaphthalen-1-yl)-8-fluoro-2-((1-(pyrrolidin-1-ylmethyl)cyclopropyl)methoxy)pyrido[4,3-d]pyrimidin-4-yl)-6-methyl-1,4-oxazepan-6-ol] | ≤ 2 nM | ≤ 2 nM
7 | CCc1c(F)ccc2cc(O)cc(-c3ncc4c(N5CCCn6nc(C(=O)N(C)C)cc6C5)nc(OC[C@@]56CCCN5C[C@H](F)C6)nc4c3F)c12 [Example 326, 5-(7-(8-ethyl-7-fluoro-3-hydroxynaphthalen-1-yl)-8-fluoro-2-(((2R,7aS)-2-fluorohexahydro-1H-pyrrolizin-7a-yl)methoxy)pyrido[4,3-d]pyrimidin-4-yl)-N,N-dimethyl-5,6,7,8-tetrahydro-4H-pyrazolo[1,5-a][1,4]diazepine-2-carboxamide] | ≤ 2 nM | ≤ 2 nM
8 | OCC1CN(c2nc(OCC34CCCN3CCC4)nc3c(F)c(-c4cccc5cccc(F)c45)ncc23)CCCO1 (stereo not drawn) [Example 269, (4-(8-fluoro-7-(8-fluoronaphthalen-1-yl)-2-((hexahydro-1H-pyrrolizin-7a-yl)methoxy)pyrido[4,3-d]pyrimidin-4-yl)-1,4-oxazepan-2-yl)methanol] | 1830 nM | 1490 nM
9 | C#Cc1c(F)ccc2cc(O)cc(-c3ncc4c(N5CCCC(O)C5)nc(OCCN(C)C)nc4c3F)c12 (stereo not drawn) [Example 387, 1-(2-(2-(dimethylamino)ethoxy)-7-(8-ethynyl-7-fluoro-3-hydroxynaphthalen-1-yl)-8-fluoropyrido[4,3-d]pyrimidin-4-yl)piperidin-3-ol] | 153 nM | 130 nM
10 | CCc1c(F)ccc2cc(O)cc(-c3ncc4c(N5CCC[C@@](C)(O)C5)nc(OC[C@@]56CCCN5[C@H](COC(=O)N(C)C)CC6)nc4c3F)c12 [Example 314, ((3S,7aS)-7a-(((7-(8-ethyl-7-fluoro-3-hydroxynaphthalen-1-yl)-8-fluoro-4-((R)-3-hydroxy-3-methylpiperidin-1-yl)pyrido[4,3-d]pyrimidin-2-yl)oxy)methyl)hexahydro-1H-pyrrolizin-3-yl)methyl dimethylcarbamate] | ≤ 2 nM | ≤ 2 nM
11 | CCc1cccc2cccc(-c3ncc4c(NCc5cn[nH]c5)nc(OCC56CCCN5CCC6)nc4c3F)c12 [Example 287, N-((1H-pyrazol-4-yl)methyl)-7-(8-ethylnaphthalen-1-yl)-8-fluoro-2-((hexahydro-1H-pyrrolizin-7a-yl)methoxy)pyrido[4,3-d]pyrimidin-4-amine] | 1160 nM | 423 nM
12 | O=C1CC2(CCCN(c3nc(OCC45CCCN4CCC5)nc4c(F)c(-c5cccc6cccc(F)c56)ncc34)C2)C(=O)N1 (stereo not drawn) [Example 265, 7-(8-fluoro-7-(8-fluoronaphthalen-1-yl)-2-((hexahydro-1H-pyrrolizin-7a-yl)methoxy)pyrido[4,3-d]pyrimidin-4-yl)-2,7-diazaspiro[4.5]decane-1,3-dione] | 3190 nM | 2380 nM
13 | CCc1cccc2cccc(-c3ncc4c(N5CC6C(=O)NC(=O)C6C5)nc(OCC56CCCN5CCC6)nc4c3F)c12 (stereo not drawn) [Example 292, 5-(7-(8-ethylnaphthalen-1-yl)-8-fluoro-2-((hexahydro-1H-pyrrolizin-7a-yl)methoxy)pyrido[4,3-d]pyrimidin-4-yl)tetrahydropyrrolo[3,4-c]pyrrole-1,3(2H,3aH)-dione] | 77 nM | 55 nM
14 | CCc1c(F)ccc2cc(O)cc(-c3ncc4c(N5CCCCCC5)nc(OC[C@@]56CCCN5C[C@H](F)C6)nc4c3F)c12 [Example 317, 4-(4-(azepan-1-yl)-8-fluoro-2-(((2R,7aS)-2-fluorohexahydro-1H-pyrrolizin-7a-yl)methoxy)pyrido[4,3-d]pyrimidin-7-yl)-5-ethyl-6-fluoronaphthalen-2-ol] | ≤ 2 nM | ≤ 2 nM
15 | CCc1cccc2cccc(-c3ncc4c(N5CCCC6(CC(=O)N6)C5)nc(OCC56CCCN5CCC6)nc4c3F)c12 (stereo not drawn) [Example 288, 6-(7-(8-ethylnaphthalen-1-yl)-8-fluoro-2-((hexahydro-1H-pyrrolizin-7a-yl)methoxy)pyrido[4,3-d]pyrimidin-4-yl)-1,6-diazaspiro[3.5]nonan-2-one] | 113 nM | 71 nM

Second part, the compound after the results:

Row | IC50 (KRas Q61H) | IC50 (KRas G13D) | SMILES
16 | 9270 nM | 6600 nM | N#CCc1cccc2cccc(-c3ncc4c(N5CCCC6(CC(=O)N6)C5)nc(OCC56CCCN5CCC6)nc4c3F)c12 (stereo not drawn) [Example 434, 2-(8-(8-fluoro-2-((hexahydro-1H-pyrrolizin-7a-yl)methoxy)-4-(2-oxo-1,6-diazaspiro[3.5]nonan-6-yl)pyrido[4,3-d]pyrimidin-7-yl)naphthalen-1-yl)acetonitrile]
17 | 664 nM | 763 nM | NS(=O)(=O)CC1CCCN(c2nc(OCC34CCCN3CCC4)nc3c(F)c(-c4cccc5cccc(CF)c45)ncc23)C1 (stereo not drawn) [Example 460, 1-(1-(8-fluoro-7-(8-(fluoromethyl)naphthalen-1-yl)-2-((hexahydro-1H-pyrrolizin-7a-yl)methoxy)pyrido[4,3-d]pyrimidin-4-yl)piperidin-3-yl)methanesulfonamide]
18 | 663 nM | 565 nM | O=C1CC2(CCCN(c3nc(OCC45CCCN4CCC5)nc4c(F)c(-c5cccc6cccc(CCF)c56)ncc34)C2)N1 (stereo not drawn) [Example 470, 6-(8-fluoro-7-(8-(2-fluoroethyl)naphthalen-1-yl)-2-((hexahydro-1H-pyrrolizin-7a-yl)methoxy)pyrido[4,3-d]pyrimidin-4-yl)-1,6-diazaspiro[3.5]nonan-2-one]
19 | 32600 nM | 22200 nM | O=S1(=O)CC(CNc2nc(OCC34CCCN3CCC4)nc3c(F)c(-c4cccc5cccc(CO)c45)ncc23)C1 [Example 443, 3-(((8-fluoro-2-((hexahydro-1H-pyrrolizin-7a-yl)methoxy)-7-(8-(hydroxymethyl)naphthalen-1-yl)pyrido[4,3-d]pyrimidin-4-yl)amino)methyl)thietane1,1-dioxide]
20 | 1680 nM | 1910 nM | NS(=O)(=O)CC1CCCN(c2nc(OCC34CCCN3CCC4)nc3c(F)c(-c4cccc5cccc(C(F)F)c45)ncc23)C1 (stereo not drawn) [Example 463, 1-(1-(7-(8-(difluoromethyl)naphthalen-1-yl)-8-fluoro-2-((hexahydro-1H-pyrrolizin-7a-yl)methoxy)pyrido[4,3-d]pyrimidin-4-yl)piperidin-3-yl)methanesulfonamide]
21 | 897 nM | 754 nM | C#Cc1cccc2cccc(-c3ncc4c(N5CCCC(CS(N)(=O)=O)C5)nc(OCC56CCCN5CCC6)nc4c3F)c12 (stereo not drawn) [Example 437, 1-(1-(7-(8-ethynylnaphthalene-1-yl)-8-fluoro-2-((hexahydro-1H-pyrrolizin-7a-yl)methoxy)pyrido[4,3-d]pyrimidin-4-yl)piperidin-3-yl)methanesulfonamide]
22 | 1650 nM | 1800 nM | O=C1CC2(CCCN(c3nc(OCC45CCCN4CCC5)nc4c(F)c(-c5cccc6cccc(C(F)(F)F)c56)ncc34)C2)N1 (stereo not drawn) [Example 467, 6-(8-fluoro-2-((hexahydro-1H-pyrrolizin-7a-yl)methoxy)-7-(8-(trifluoromethyl)naphthalen-1-yl)pyrido[4,3-d]pyrimidin-4-yl)-1,6-diazaspiro[3.5]nonan-2-one]
23 | 87 nM | 117 nM | Cc1cccc2cccc(-c3ncc4c(N5CCCC(CS(N)(=O)=O)C5)nc(OCC56CCCN5CCC6)nc4c3F)c12 (stereo not drawn) [Example 438, 1-(1-(8-fluoro-2-((hexahydro-1H-pyrrolizin-7a-yl)methoxy)-7-(8-methylnaphthalen-1-yl)pyrido[4,3-d]pyrimidin-4-yl)piperidin-3-yl)methanesulfonamide]
24 | 752 nM | 578 nM | O=C1NC(=O)C2(CCCN(c3nc(OCC45CCCN4CCC5)nc4c(F)c(-c5cccc6cccc(CO)c56)ncc34)C2)N1 (stereo not drawn) [Example 447, 7-(8-fluoro-2-((hexahydro-1H-pyrrolizin-7a-yl)methoxy)-7-(8-(hydroxymethyl)naphthalen-1-yl)pyrido[4,3-d]pyrimidin-4-yl)-1,3,7-triazaspiro[4.5]decane-2,4-dione]
